Measurements reported in patent publication US7863262B2, “Nitroxyl progenitors in the treatment of heart failure” (Johns Hopkins University, priority 2002, dated 2011).

Assays:
Assay type in all cases: in vivo, mongrel dogs
[1] = tested on: conscious dogs experiencing CHF
[2] = tested on: calcitonin gene-related peptide (CGRP)
[3] = tested on: conscious dogs experiencing congestive heart failure (CHF)

SMILES | Ees when administered with dobutamine, versus dobutamine alone ([1]; dog, in vivo) | positive inotropic effect when administered with dobutamine, versus dobutamine alone ([1]; dog, in vivo) | blood plasma CGRP levels after stimulation ([2]; dog, in vivo) | positive inotropic effect when administered with dobutamine, versus dobutamine alone ([1]; CHF dogs, FIG. 5) | contractility (inotropic effect) as measured by Ees, DEDV and PRSW ([3]; compound alone, doses titrated to nearly equivalent end systolic pressure (Pes), FIG. 1-4) | Ees when administered with dobutamine, versus dobutamine alone ([1]; CHF dogs, FIG. 5) | inotropic effect under cardiac load conditions (volume loading, matched end-diastolic volume) ([3]; FIG. 2-4) | blood plasma CGRP levels after stimulation ([2]; normal and CHF dogs, artery, vein, coronary sinus, FIG. 7)
CCN(CC)/[N+]([O-])=N/O.CCNCC [DEA/NO, diethylamine/NO, reference compound] | decrease in Ees | reduced the positive inotropic effect of dobutamine | failed to significantly increased CGRP levels | – | – | – | – | –
CC(C)N[N+]([O-])=N[O-].[Na+] [IPA/NO, isopropylamine (IPA)/NO(Na(CH3)2CHNHN(O)NO)] | – | – | – | greater positive inotropic effect than administration of dobutamine alone | significant increases in contractility | – | – | –
O=[N+]([O-])OCC(CO[N+](=O)[O-])O[N+](=O)[O-] [nitroglycerin, reference compound] | – | – | – | reduced the positive inotropic effect of dobutamine | – | decrease in Ees | even greater negative inotropic effect | failed to significantly increased CGRP levels

Like-named read-outs stand apart in the source and are kept apart here.
